Earlier results on one substance are cited in US7531557B2, “Diaryl ethers as opioid receptor antagonists” (Eli Lilly and Company, priority 2002, dated 2009).

This data set has as its system mu, delta and kappa receptors in rat striatum/nucleus accumbens. To be noted: read-out: affinity of the radioligand for mu, delta and kappa receptors; radioligand used in the ex vivo binding assay; cited from earlier work.

This is a selection: effects in other tests are not listed, and their absence says nothing.

Regarding 3H-diprenorphine, the Kd is 0.1 to 0.4 nM.
